# According to US20150335677A1, “Argon is a mu opioid receptor antagonist” (priority 2014, published 2015):
# Amino acid sequences for entries named in this document (tags omitted).
# UniProt Q01827, whole entry: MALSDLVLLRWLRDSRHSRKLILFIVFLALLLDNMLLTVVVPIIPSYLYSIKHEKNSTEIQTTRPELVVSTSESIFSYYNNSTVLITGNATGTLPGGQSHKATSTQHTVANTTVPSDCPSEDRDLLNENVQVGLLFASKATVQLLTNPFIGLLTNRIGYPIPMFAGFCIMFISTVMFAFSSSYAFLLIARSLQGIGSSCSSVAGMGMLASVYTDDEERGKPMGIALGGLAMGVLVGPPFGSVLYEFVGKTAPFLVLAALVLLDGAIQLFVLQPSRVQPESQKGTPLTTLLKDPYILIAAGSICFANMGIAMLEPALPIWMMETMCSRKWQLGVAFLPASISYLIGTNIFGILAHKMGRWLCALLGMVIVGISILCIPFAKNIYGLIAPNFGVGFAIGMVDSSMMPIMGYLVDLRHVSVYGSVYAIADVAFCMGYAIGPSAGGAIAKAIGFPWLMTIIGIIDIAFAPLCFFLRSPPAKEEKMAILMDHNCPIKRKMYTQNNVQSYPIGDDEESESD
# Biological target: T1, type 2 vesicular monoamine transporter (Rattus norvegicus, UniProt Q01827)
# T1 construct: Coronal brain slices (400 μm thickness) including the nucleus accumbens; from tissue; host or cells: rat nucleus accumbens brain slices
# Test: Carrier-mediated and KCl-evoked dopamine release in nucleus accumbens brain slices with amphetamine
# Assay type: cell-based
# Description: Rats were killed by decapitation and the brains were carefully removed and placed in ice-cold artificial cerebrospinal fluid (aCSF). Coronal brain slices (400 μm thickness) including the nucleus accumbens (anteriority: −1.2 to +2 mm from the bregma) were cut using a tissue chopper. Before being used, brain slices (n=4 per condition) were allowed to recover at room temperature for 1 hour in oxygenated a CSF. Slices were then placed in a recording chamber (1 mL volume) at 34.5±0.5° C. and superfused at a flow rate of 1 mL/min with aCSF in the presence of amphetamine and air (nitrogen 75 vol %+oxygen 25 vol %) or argon at 75 vol % (with the remainder being oxygen). Control slices were treated with saline solution and air. Carrier-mediated and depolarization-dependent (KCl: 100 mM) dopamine release in the nucleus accumbens were monitored using a polarograph and standard glass-encased nafion-precoated carbon fiber electrodes (David H. N. et al., Biol. Psych., 2006). For each experimental condition (saline+air, amphetamine+air, amphetamine+argon), changes in dopamine release were calculated using each slice as its own control as illustrated in FIG. 1A: changes in carrier-mediated dopamine release were calculated as [B2−B1], [B3−B1], and [B4−B1]; Peak 2 (P2) and Peak 3 (P3) KCl-evoked dopamine responses were calculated as a percentage change from Peak 1 (P1) KCl-evoked dopamine release taken as a 100% value. Therefore, in the experiments with argon, argon was only administered after Peak 1 (P1) KCl-evoked dopamine release had returned to baseline (B2).
# [1] = amphetamine + air compared to sham slices with saline solution + air
smiles,measurement,setting,value
"CC(N)Cc1ccccc1 (stereo not drawn) [amphetamine, reference compound]",Peak 3 (P3) KCl-evoked dopamine release,[1],decrease of Peak 3 (P3) KCl-evoked dopamine release
same,carrier-mediated dopamine release,[1],increase in carrier-mediated dopamine release
same,effect on Peak 2 KCl-evoked dopamine release,"amphetamine in the presence of air or argon, KCl 100 mM",lack of effect
